In ChEMBL document CHEMBL2177083, “Enhanced in vitro biological activity of synthetic 2-(2-pyridyl) ethyl isothiocyanate compared to natural 4-(methylsulfinyl) butyl isothiocyanate” (J Med Chem, 2012):

How the values were obtained:
Format in all cases: functional
[1] = system: PC-3; experiment: Increase in nonsmall cell lung cancer related gene expression in human PC3 cells at 10 uM incubated for 8 hrs by Affymetrix human exon array relative to untreated control
[2] = system: PC-3; experiment: Increase in pancreatic cancer related gene expression in human PC3 cells at 10 uM incubated for 8 hrs by Affymetrix human exon array relative to untreated control
[3] = system: PNT1A; experiment: Increase in melanogenesis related gene expression in human PNT1A cells at 10 uM incubated for 8 hrs by Affymetrix human exon array relative to untreated control
[4] = system: PNT1A; experiment: Increase in colorectal cancer related gene expression in human PNT1A cells at 10 uM incubated for 8 hrs by Affymetrix human exon array relative to untreated control
[5] = system: PNT1A; experiment: Increase in cytokine-cytokine receptor interaction related gene expression in human PNT1A cells at 10 uM incubated for 8 hrs by Affymetrix human exon array relative to untreated control

S=C=NCCc1ccccn1
fold change (FC) [1]: 1.7 | fold change (FC) [2]: 2.2 | fold change (FC) [3]: 2.2 | fold change (FC) [4]: 2.2 | fold change (FC) [5]: 1.7
